This experiment deals with human DOPr (Homo sapiens, UniProt P41143). The experiment can be described thus: Antagonism of Met-Enk-stimulated [35S]GTPγS binding, CHO membranes overexpressing DOPr (SPA, antagonist mode). The class given is biochemical. (In general: GTPγS is a poorly hydrolysed GTP analogue; its binding reports G protein activation.)

The chains behind the UniProt entries cited, without tags or fusion partners.
UniProt P41143, whole entry: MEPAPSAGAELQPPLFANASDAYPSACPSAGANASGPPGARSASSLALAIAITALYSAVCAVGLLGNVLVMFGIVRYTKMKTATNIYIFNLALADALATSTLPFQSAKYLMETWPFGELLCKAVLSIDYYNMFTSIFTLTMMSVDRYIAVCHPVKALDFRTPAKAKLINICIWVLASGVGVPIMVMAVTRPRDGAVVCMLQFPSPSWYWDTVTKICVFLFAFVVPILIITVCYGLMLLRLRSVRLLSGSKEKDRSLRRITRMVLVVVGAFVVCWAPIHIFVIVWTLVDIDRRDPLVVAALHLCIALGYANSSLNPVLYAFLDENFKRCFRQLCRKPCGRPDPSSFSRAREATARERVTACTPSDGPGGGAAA

Usually Ki stands for a dissociation constant, usually derived from enzyme kinetics or from competition with a known ligand. Read a low Ki as higher affinity.

Structures are written as SMILES.

The compound `C=C1CC[C@@]2(O)[C@H]3Cc4ccc(O)c5c4[C@@]2(CCN3CC2CC2)[C@H]1O5` [Nalmefene, nalmefene, reference compound] had a Ki of 8.32 nM.

(Values after article PMC4281354, “The opioid receptor pharmacology of GSK1521498 compared to other ligands with differential effects on compulsive reward-related behaviours” (Psychopharmacology, 2014).)
